Reference: the supplement of paper PMC11403291

Chains of the proteins cited; added tags and fusions are not shown. Lines headed by an entry give the natural chain unless they say otherwise; changes in a name come on top.
UniProt Q16659, whole entry: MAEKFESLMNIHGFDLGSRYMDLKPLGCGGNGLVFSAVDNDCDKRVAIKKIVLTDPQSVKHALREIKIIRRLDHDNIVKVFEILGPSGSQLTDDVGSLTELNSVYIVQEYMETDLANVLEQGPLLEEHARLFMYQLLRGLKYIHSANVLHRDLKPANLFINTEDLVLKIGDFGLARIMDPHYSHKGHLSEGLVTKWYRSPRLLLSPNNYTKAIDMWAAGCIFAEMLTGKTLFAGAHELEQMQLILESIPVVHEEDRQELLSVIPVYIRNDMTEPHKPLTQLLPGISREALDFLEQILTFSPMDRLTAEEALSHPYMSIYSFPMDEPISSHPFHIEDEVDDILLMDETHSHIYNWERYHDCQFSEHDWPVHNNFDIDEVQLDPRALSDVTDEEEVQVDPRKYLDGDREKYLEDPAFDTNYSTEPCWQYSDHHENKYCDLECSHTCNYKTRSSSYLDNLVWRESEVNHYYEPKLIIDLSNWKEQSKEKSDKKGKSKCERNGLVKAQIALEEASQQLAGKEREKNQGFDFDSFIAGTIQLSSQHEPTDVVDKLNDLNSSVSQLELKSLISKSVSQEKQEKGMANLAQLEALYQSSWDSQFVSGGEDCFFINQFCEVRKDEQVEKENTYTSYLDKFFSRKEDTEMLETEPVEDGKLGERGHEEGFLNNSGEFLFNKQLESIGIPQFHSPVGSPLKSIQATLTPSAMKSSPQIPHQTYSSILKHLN
UniProt Q00537: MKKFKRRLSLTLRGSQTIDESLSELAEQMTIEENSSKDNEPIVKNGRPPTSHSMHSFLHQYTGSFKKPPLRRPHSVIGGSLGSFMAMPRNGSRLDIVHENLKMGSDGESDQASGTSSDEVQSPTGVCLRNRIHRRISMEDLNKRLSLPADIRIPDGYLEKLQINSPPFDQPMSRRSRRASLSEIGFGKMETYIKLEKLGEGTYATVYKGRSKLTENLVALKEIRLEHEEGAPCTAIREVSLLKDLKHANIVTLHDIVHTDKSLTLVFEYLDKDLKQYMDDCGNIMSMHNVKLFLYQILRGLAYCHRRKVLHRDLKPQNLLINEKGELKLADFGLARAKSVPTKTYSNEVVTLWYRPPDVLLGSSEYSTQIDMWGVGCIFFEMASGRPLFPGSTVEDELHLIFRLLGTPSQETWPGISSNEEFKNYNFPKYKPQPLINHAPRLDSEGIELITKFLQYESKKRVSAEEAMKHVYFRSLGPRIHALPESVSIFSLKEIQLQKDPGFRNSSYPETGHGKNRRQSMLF
UniProt P00519, whole entry: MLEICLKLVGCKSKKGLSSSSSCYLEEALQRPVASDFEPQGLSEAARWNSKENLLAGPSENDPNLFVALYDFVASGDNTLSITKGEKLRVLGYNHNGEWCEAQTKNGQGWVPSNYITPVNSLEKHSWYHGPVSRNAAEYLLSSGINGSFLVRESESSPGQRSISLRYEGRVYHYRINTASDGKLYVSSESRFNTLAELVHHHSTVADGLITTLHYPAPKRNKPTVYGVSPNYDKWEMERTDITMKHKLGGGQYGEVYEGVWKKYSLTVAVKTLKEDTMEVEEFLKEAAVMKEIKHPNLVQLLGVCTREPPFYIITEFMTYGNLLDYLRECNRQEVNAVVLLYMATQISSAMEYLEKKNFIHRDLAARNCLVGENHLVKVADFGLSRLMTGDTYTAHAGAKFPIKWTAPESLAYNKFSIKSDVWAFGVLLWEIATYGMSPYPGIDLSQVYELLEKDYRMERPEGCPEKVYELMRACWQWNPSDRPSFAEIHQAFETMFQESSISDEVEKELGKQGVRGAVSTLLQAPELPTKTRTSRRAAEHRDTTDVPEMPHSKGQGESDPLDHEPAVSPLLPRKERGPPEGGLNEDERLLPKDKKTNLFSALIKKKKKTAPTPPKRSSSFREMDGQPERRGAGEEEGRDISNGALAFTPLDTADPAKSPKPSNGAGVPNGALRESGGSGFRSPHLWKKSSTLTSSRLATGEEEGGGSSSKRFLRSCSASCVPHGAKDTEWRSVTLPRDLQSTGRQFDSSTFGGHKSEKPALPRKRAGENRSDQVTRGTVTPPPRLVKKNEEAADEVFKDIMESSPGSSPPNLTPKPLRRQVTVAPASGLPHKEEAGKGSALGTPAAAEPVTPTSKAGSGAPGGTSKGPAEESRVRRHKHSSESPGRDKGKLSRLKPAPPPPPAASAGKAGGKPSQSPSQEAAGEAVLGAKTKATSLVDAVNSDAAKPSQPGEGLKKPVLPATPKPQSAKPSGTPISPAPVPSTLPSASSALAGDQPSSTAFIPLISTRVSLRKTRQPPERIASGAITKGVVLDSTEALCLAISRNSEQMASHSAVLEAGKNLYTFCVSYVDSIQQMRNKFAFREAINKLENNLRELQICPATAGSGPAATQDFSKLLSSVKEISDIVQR
UniProt Q13233: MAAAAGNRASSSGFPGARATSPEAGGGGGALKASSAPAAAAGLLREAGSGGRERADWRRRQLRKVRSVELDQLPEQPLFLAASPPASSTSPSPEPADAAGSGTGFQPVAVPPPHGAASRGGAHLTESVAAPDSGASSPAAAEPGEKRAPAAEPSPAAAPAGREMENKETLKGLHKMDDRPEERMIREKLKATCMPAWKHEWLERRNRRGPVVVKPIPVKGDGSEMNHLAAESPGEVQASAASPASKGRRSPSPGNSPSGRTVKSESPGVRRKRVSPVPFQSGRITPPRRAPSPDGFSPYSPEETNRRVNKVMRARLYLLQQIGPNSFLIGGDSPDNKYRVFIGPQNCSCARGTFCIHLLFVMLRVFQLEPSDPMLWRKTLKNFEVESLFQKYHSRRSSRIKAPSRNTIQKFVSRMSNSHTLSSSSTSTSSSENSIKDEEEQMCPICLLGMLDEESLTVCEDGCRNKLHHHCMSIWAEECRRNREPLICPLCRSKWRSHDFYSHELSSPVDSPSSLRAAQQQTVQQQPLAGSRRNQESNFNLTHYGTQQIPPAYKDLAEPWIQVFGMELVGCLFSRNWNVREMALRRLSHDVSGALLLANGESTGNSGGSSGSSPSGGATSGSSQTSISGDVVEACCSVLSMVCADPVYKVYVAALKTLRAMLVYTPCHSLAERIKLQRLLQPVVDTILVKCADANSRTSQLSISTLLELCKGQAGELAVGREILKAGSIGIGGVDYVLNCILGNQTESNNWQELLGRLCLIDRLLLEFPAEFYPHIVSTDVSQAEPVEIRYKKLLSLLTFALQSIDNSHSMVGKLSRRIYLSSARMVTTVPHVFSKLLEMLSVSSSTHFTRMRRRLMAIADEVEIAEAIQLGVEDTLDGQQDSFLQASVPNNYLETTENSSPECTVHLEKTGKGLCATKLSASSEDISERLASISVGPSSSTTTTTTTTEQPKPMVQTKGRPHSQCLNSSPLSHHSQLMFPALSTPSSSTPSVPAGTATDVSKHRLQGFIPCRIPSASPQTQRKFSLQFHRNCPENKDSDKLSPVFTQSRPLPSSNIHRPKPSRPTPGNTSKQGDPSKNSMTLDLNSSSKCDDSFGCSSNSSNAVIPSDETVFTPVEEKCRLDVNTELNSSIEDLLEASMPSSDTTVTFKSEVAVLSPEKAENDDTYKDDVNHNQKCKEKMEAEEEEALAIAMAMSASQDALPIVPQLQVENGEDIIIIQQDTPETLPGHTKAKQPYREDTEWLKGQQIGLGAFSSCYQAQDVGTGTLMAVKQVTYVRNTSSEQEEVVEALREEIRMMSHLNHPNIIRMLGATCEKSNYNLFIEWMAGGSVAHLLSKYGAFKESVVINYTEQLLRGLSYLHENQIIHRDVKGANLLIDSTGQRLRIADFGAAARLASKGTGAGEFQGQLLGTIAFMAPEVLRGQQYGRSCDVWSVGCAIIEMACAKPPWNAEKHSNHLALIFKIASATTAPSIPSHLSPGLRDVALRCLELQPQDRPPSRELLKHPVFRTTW
UniProt O95819: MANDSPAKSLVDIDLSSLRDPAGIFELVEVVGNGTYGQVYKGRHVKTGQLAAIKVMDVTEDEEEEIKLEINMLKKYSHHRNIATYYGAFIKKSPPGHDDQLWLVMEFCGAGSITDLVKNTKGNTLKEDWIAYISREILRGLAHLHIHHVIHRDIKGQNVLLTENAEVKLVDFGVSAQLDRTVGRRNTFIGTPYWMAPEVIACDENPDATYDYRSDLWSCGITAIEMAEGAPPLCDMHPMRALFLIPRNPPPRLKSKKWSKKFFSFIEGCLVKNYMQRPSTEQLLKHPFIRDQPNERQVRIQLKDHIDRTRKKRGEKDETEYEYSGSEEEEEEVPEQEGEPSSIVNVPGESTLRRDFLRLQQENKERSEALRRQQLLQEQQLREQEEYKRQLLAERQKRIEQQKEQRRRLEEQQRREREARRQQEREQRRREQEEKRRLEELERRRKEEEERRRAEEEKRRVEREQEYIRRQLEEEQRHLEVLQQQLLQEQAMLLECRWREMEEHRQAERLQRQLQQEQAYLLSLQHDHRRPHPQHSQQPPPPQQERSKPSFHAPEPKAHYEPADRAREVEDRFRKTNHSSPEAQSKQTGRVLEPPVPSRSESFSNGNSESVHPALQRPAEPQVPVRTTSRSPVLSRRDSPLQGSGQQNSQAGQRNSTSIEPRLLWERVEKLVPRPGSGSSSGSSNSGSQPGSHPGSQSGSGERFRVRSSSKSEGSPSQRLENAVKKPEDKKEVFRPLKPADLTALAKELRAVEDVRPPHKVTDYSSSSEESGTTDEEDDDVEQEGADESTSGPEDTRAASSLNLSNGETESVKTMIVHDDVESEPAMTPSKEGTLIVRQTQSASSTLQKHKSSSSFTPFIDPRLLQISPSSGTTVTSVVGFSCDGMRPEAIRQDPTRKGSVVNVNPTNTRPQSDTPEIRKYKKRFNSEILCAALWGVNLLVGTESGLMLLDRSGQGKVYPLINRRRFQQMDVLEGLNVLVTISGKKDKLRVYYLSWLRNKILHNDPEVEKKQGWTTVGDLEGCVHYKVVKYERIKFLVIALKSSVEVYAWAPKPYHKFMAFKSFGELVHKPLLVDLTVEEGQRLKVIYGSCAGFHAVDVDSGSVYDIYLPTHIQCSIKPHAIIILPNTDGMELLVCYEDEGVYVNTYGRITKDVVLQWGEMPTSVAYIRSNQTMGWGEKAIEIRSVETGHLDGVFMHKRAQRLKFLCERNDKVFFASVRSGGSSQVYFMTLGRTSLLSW
UniProt Q15131: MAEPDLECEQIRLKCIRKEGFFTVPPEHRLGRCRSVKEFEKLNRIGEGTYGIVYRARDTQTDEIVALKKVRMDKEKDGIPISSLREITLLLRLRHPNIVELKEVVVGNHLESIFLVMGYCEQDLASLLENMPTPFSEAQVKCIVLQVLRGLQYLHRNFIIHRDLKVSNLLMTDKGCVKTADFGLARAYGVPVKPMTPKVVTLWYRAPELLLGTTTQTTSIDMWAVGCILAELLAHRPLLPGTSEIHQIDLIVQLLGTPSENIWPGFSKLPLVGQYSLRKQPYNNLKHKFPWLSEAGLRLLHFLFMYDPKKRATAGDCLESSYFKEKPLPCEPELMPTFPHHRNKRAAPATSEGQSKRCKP
UniProt P12931, whole entry, looked up: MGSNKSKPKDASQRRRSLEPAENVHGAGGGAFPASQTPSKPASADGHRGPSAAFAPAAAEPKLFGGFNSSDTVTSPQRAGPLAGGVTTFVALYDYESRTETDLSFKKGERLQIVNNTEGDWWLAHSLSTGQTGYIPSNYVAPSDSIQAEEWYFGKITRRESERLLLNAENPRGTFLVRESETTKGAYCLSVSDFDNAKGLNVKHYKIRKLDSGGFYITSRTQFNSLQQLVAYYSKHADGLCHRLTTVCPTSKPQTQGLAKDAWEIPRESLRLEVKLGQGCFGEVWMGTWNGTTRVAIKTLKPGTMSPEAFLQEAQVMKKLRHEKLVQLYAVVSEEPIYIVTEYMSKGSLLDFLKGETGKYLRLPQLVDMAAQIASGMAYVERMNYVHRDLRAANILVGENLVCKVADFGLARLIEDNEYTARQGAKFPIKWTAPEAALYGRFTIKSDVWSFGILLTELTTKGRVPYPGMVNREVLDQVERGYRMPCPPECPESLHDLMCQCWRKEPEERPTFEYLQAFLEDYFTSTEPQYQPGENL
UniProt P06493, whole entry, looked up: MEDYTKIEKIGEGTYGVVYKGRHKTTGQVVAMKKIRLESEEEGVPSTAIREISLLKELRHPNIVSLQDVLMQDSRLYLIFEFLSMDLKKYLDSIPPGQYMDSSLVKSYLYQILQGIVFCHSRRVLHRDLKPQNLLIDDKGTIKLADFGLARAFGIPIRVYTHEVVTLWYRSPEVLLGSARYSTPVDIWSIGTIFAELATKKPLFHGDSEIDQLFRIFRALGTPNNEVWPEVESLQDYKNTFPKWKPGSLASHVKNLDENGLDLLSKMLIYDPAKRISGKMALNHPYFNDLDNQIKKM

Legend:
Assay in all cases: apparent dissociation constant pKd app (kinobead competition) (-log10(M)); higher = stronger binding
TESK2 = TESK2 (UniProt Q96S53)
EPHB3 = molecular target: T1, EPHB3 (UniProt P54753)
T1 sequence (whole entry): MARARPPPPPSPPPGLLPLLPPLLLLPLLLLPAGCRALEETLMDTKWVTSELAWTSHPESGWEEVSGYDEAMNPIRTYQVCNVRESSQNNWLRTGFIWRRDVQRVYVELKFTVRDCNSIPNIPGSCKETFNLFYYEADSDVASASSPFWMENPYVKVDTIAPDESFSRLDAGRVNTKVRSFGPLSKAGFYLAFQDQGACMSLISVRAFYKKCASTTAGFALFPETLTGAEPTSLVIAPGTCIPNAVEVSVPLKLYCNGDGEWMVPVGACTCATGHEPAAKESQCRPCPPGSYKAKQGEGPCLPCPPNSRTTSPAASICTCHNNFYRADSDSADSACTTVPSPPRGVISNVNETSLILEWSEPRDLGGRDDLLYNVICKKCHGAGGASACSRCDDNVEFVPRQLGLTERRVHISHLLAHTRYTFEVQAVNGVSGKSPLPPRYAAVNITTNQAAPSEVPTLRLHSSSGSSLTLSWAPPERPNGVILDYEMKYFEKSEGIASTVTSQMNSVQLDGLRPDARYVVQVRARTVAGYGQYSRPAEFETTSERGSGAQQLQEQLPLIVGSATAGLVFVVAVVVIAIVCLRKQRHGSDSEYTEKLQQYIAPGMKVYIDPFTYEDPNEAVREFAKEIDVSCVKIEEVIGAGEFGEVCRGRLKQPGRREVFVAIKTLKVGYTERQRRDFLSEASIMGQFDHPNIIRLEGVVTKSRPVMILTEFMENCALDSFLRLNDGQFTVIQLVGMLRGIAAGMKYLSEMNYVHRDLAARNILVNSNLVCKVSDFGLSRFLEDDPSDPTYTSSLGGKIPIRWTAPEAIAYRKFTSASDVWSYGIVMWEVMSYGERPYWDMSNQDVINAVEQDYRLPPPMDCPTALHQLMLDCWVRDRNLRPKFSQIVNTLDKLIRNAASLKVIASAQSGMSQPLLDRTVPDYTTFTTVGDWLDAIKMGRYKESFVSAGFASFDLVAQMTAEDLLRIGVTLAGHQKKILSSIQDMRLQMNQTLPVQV

MAPK6 = MAPK6 (UniProt Q16659)
PCTK2 = PCTK2 (UniProt Q00537)
ABL1 = ABL1 (UniProt P00519)
MAP3K1 = MAP3K1 (UniProt Q13233)
MAP4K4 = MAP4K4 (UniProt O95819)
PDPK1 = molecular target: T2, PDPK1 (UniProt O15530)
T2 sequence (whole entry): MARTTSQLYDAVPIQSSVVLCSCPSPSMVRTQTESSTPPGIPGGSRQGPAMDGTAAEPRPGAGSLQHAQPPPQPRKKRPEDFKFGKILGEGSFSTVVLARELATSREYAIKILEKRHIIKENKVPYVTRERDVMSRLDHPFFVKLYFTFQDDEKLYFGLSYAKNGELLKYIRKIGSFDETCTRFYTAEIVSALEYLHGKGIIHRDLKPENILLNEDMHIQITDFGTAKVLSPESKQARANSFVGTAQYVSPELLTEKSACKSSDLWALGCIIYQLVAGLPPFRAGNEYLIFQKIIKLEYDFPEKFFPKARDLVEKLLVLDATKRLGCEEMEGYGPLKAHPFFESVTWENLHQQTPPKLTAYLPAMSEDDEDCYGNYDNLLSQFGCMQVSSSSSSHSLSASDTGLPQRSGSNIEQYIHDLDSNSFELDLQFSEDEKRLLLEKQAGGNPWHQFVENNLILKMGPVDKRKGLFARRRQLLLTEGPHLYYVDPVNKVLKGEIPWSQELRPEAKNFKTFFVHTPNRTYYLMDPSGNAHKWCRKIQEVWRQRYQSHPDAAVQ

CDK10 = CDK10 (UniProt Q15131)
SRC = SRC (UniProt P12931)
CDC2 = CDC2 (UniProt P06493)
CDK2 = CDK2 (UniProt P24941)

| Compound | apparent dissociation constant pKd app (-log10) (TESK2) | apparent dissociation constant pKd app (-log10) (EPHB3) | apparent dissociation constant pKd app (-log10) (MAPK6) | apparent dissociation constant pKd app (-log10) (PCTK2) | apparent dissociation constant pKd app (-log10) (ABL1) | apparent dissociation constant pKd app (-log10) (MAP3K1) | apparent dissociation constant pKd app (-log10) (MAP4K4) | apparent dissociation constant pKd app (-log10) (PDPK1) | apparent dissociation constant pKd app (-log10) (CDK10) | apparent dissociation constant pKd app (-log10) (SRC) | apparent dissociation constant pKd app (-log10) (CDC2) | apparent dissociation constant pKd app (-log10) (CDK2) |
| --- | --- | --- | --- | --- | --- | --- | --- | --- | --- | --- | --- | --- |
| NC(=O)c1cccc2cn(-c3ccc([C@@H]4CCCNC4)cc3)nc12 [Niraparib] | < 4.6 | < 4.5 | < 4.5 | < 4.6 | < 4.7 | < 4.7 | < 4.6 | < 4.5 | < 4.7 | < 4.8 | < 4.5 | < 4.7 |
| O=C(c1cc(Cc2n[nH]c(=O)c3ccccc23)ccc1F)N1CCN(C(=O)C2CC2)CC1 [Olaparib] | < 4.6 | < 4.5 | < 4.5 | < 4.6 | < 4.7 | < 4.7 | < 4.6 | < 4.5 | < 4.7 | < 4.8 | < 4.5 | < 4.7 |
| Cn1ncnc1[C@H]1c2n[nH]c(=O)c3cc(F)cc(c23)N[C@@H]1c1ccc(F)cc1 [Talazoparib] | < 4.6 | < 4.5 | < 4.5 | < 4.6 | < 4.7 | < 4.7 | < 4.6 | < 4.5 | < 4.7 | < 4.8 | < 4.5 | < 4.7 |
